Earlier results, collected in patent publication US20250312408A1, “NAP FOR SEX-SPECIFIC TREATMENT OF DISEASES” (RAMOT AT TEL-AVIV UNIVERSITY LTD., priority 2021, published 2025).

Tested on: patients with early Alzheimer's disease
Settings: patients with early Alzheimer's disease (Ayton S.); cited from earlier work

## aducanumab: FDA-approved drug, an anti-amyloid-β therapy for early Alzheimer's disease
  brain ventricular enlargement (side effect): progressive, dose-dependent ventricular enlargement
